This is an account of results in patent US9120791B2, “Indolizine compounds, a process for their preparation and pharmaceutical compositions containing them” (LES LABORATOIRES SERVIER, priority 2012, dated 2015).

Amino acid sequences for entries named in this document (tags omitted).
UniProt P10415, whole entry: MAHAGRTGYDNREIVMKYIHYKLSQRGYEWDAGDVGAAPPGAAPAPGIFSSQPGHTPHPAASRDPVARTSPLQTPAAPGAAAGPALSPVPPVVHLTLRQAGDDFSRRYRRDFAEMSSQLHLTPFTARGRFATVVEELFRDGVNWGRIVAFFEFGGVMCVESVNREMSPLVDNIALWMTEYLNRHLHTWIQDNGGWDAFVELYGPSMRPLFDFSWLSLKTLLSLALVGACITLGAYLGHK

Structures can show the parent of a compound that is named as a salt.

This assay has as its target Bcl-2 protein (Homo sapiens (Human), UniProt P10415). As to the kind of experiment: Inhibition of Bcl-2 by the fluorescence polarisation technique. The assay is classed as binding. As for the experimental part:
The fluorescence polarisation tests were carried out on microplates (384 wells). […] After incubation for 2 hours, the fluorescence polarisation is measured.

With `O=C(c1cc(-c2cc3c(cc2C(=O)N2Cc4ccccc4C[C@H]2CN2CCOCC2)OCO3)n2ccncc12)N(c1ccc(O)cc1)c1cccc(F)c1` [Example 121, N-(3-Fluorophenyl)-N-(4-hydroxyphenyl)-6-(6-{[(3S)-3-(morpholin-4-ylmethyl)-3,4-dihydroisoquinolin-2(1H)-yl]carbonyl}-1,3-benzodioxol-5-yl)pyrrolo-[1,2-a]pyrazine-8-carboxamide hydrochloride], the IC50 (as a rule, the concentration that gives 50% inhibition) worked out at 34 nM.
